According to paper PMC3064516 (Nature structural & molecular biology, 2011):

Assays:
Autotaxin (ATX, ENPP2) = Autotaxin (ATX, ENPP2) (Homo sapiens, UniProt Q13822); test: biochemical
[1] = target: ΔSMB-ATX (autotaxin, ENPP2) (Homo sapiens, UniProt Q13822)

pEC50 (Autotaxin (ATX, ENPP2)): 7.10 | pEC50 [1]: 6.14
SMILES: CCCCCCCC/C=C\CCCCCCCC(=O)OC[C@@H](O)COP(=O)(O)O [LPA(18:1)]

pEC50: −log10 of the molar value.
